In the experiment the target is T1, Histone deacetylase 8 (Homo sapiens, UniProt Q9BY41).
T1 sequence (Q9BY41 whole entry): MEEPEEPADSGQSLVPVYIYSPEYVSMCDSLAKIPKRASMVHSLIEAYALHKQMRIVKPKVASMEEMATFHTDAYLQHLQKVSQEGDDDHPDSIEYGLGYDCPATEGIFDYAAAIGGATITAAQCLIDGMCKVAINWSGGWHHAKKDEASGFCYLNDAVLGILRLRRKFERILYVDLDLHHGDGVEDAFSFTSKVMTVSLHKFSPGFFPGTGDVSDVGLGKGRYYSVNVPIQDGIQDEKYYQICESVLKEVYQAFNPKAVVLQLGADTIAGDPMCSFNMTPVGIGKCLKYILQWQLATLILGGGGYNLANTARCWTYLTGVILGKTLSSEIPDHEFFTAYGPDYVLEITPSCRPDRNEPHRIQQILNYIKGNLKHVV
Put plainly: Inhibition of human HDAC8 incubated for 10 mins followed by fluorogenic substrate addition by fluorescence based analysis.

Usually pIC50 stands for the IC50 on a negative log10 scale, so that one unit is a factor of ten. A low value points to a large IC50.

pIC50: −log10 of the molar value.

Regarding `O=C(CCCCCCC(=O)Nc1ccccc1)NO` [VORINOSTAT], the pIC50 was 6.34.

The record behind these values is ChEMBL document CHEMBL5512640, “Discovery of novel itaconimide-based derivatives as potent HDAC inhibitors for the efficient treatment of prostate cancer” (Eur J Med Chem, 2024).
